The record followed here is patent publication US9023878B2, “2-iminobiotin formulations and uses thereof” (Neurophyxia B.V., priority 2010, dated 2015).

The text on data set [1]: Necropsy took place approximately one hour after the second injection. Blood and brain samples were collected for both the mother and fetuses.
The nature of data set [2]: Novel excipients (Cremophor EL, Solutol HS 15): 2-IB content of formulations at t=0 and after 48 hours. The following applies: Solutol HS 15 formulation.

Structures are written as SMILES.

Regarding `N=C1N[C@H]2[C@H](CS[C@H]2CCCCC(=O)O)N1` [Formulation 2-IB, 2-iminobiotin], the “average brain to plasma ratio, maternal animals” value in data set [1] (55 mg/kg sc) was 0.03. The “plasma concentration, maternal animals relative to their fetuses” value in data set [1] (55 mg/kg sc) is reported as 3-7 times. In data set [1] (maternal dose 55 mg/kg sc), the “average brain to plasma ratio, female fetuses” value worked out at 0.20. The “average brain to plasma ratio, fetuses” value in data set [1] (maternal dose 55 mg/kg sc) is 0.20. Moreover, in data set [1] (maternal dose 55 mg/kg sc), the “average brain to plasma ratio, male fetuses” value is on record as 0.19. Also, the viability of fetuses result in data set [1] (maternal dose 55 mg/kg sc) is “all fetuses were viable”. Moreover, the “Concentration t = 48 h relative to t = 0” value was 85% in data set [2] (nominal 5.0 mg/ml, pH 2.4); 100% in data set [2] (nominal 5.0 mg/ml, pH 2.8); 105% in data set [2] (nominal 5.0 mg/ml, pH 3.0); 95% in data set [2] (nominal 5.0 mg/ml, pH 3.5); 87% in data set [2] (nominal 5.0 mg/ml, pH 3.6); 51% in data set [2] (nominal 5.0 mg/ml, pH 3.8). Moreover, the “Concentration t = 48 h relative to t = 0” value in data set [2] (nominal 5.0 mg/ml, pH 10.2) is 0%; in data set [2] (nominal 10 mg/ml, pH 3.0), 95%; in data set [2] (nominal 10 mg/ml, pH 3.5) it was 97%; in data set [2] (nominal 20 mg/ml, pH 3.0), 101%; in data set [2] (nominal 20 mg/ml, pH 3.5) it was 90%.
